Only a part is listed here, and it is no random draw. Activity calls are given as the source filed them.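 How the source made its calls: active means activation above the mean across all tested compounds plus 3 SD, cutoff set per campaign (cut at about 5.5% in these data); inactive means the rest.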

This assay can be described thus: Hsp70 promoter-driven reporter induction – cell-based, HeLa, Hsp70 promoter luciferase, luminescence, 10 µM, primary screen (AID 1203).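 Further: 100% = MG132 at 30 µM as the positive control and 0% = DMSO.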 To be noted: at 10 µM, active compounds read high, scaled: vehicle 0, proteasome-inhibitor control 100%.
Turning to `CCOc1ncccc1C(=O)NCC1(N2CCOCC2)CCCCC1`, the activation was inactive: -0.06%.

With `CC(C)(C)OC(=O)N1CCC(Nc2ccccc2)CC1`, the activation is inactive: -0.16%. `CCC(CO)(C(=O)OC1CN2CCC1CC2)c1ccccc1` (stereo not given): the activation is inactive: -0.01%. As for `COc1cc(OC)cc(C(=O)NCC2(N3CCOCC3)CCCCC2)c1`, the activation was inactive: 0.07%. Turning to `CCN1CCC(Nc2cccc(F)c2)CC1`, the activation was inactive: -0.51%. On to `CN(C)c1ccc(C(=O)NCC2(N3CCCCC3)CCCCC2)cc1`, for which the activation is inactive: -0.05%. In the case of `N#Cc1ccc(C(=O)NCC2(N3CCCCC3)CCCCC2)cc1`, the activation is inactive: -0.12%. In the case of `c1ccc(CN2CCC(Nc3ccccc3)CC2)cc1` it was inactive: -0.29%; in that of `COc1ccc(C(=O)NCC2(N3CCOCC3)CCCCC2)cc1OC`, inactive: -0.07%; in that of `N/C(=N\O)c1c(N)no[n+]1[O-]`, inactive: 0.08%. On to `O=C(OC1CN2CCC1CC2)C1c2ccccc2C=Cc2ccccc21` (stereo not given), for which the activation is inactive: -0.03%. The value for `CN(C)c1cccc(C(=O)NCC2(N3CCCCC3)CCCCC2)c1` was inactive: 1.31%.

Regarding `COc1ccc(CN(CCCl)CCCl)cc1Cl`, the activation was inactive: -0.29%. `CC(C)c1ccc(NC2CCN(C(=O)OC(C)(C)C)CC2)cc1`: the activation is inactive: 0.17%. In the case of `CN1CCC(Nc2cccc(F)c2)CC1` it was inactive: -0.29%; in that of `O=C(NCC1(N2CCCCC2)CCCCC1)c1cccc([N+](=O)[O-])c1`, inactive: -0.16%. Consider `N#CC1(Nc2ccccc2)CCN(CCc2ccccc2)CC1`, for which the activation was inactive: -0.17%. As to `COc1ccc(NC2CCN(C(=O)OC(C)(C)C)CC2)cc1`, the activation was inactive: -0.21%. `CN1CCN(CCOC(=O)C(O)(c2ccccc2)c2ccccc2)CC1`: the activation is inactive: -0.2%. Take `O=C(NCC1(N2CCOCC2)CCCCC1)c1cc(=O)[nH]c2ccccc12`: the activation was inactive: -0.18%. In the case of `COc1ccc(NC2CCN(CCc3ccccc3)CC2)c(OC)c1` it was inactive: 0.3%; in that of `COc1ccc(C(=O)NCC2(N3CCCCC3)CCCCC2)c(OC)c1OC`, inactive: 0.27%; in that of `O=C(NCC1(N2CCOCC2)CCCCC1)c1cc2ccccc2o1`, inactive: 0.1%. In the case of `CCOC(=O)N1CCC(Nc2ccc(OC)cc2)CC1` it was inactive: -0.18%; in that of `O=C(OC1CN2CCC1CC2)C1c2ccccc2Oc2ccccc21` (stereo not given), inactive: -0.07%.

The record behind these values is PubChem BioAssay AID1203 (The Scripps Research Institute Molecular Screening Center, 2008).
